Results taken from US20260217701A1, “SELECTIVE BET INHIBITORS AND USES THEREOF” (Tay Therapeutics Limited, priority 2022, published 2026).

Tests used:
[1] = tested on: collagen-induced arthritis; experiment: Collagen-induced arthritis (CIA) model: clinical scores and paw volume; type: in vivo, Lewis rats; conditions: for Animal paw volume: Group 3 (CIA + Dexamethasone), individual animals; for Average animal paw volume: group 3 CIA + Dexamethasone
[2] = CIA study: animal body weight; conditions: Day 8; Group 3 (CIA + Dexamethasone); individual animals

In the case of `C[C@@H]1C[C@H]2[C@@H]3CCC4=CC(=O)C=C[C@]4(C)[C@@]3(F)[C@@H](O)C[C@]2(C)[C@@]1(O)C(=O)CO` [Dexamethasone, dexamethasone], the Animal paw volume ([1]; Day 6, L paw) is reported as 1.26 mL, the Animal paw volume ([1]; Day 6, R paw) is reported as 1.26 mL and the “Average animal paw volume” value ([1]; Day 12, R paw) is reported as 1.26 mL. For the same compound, the Animal paw volume ([1]; Day 12, L paw) was 1.21 mL (2×) and 1.22 mL, the Animal paw volume ([1]; Day 12, R paw) was 1.25 mL (2×) and 1.26 mL (2×) and 1.18 mL and the Animal paw volume ([1]; Day 13, L paw) was 1.23 mL and 1.24 mL and 1.25 mL. For the same compound, the Animal paw volume ([1]; Day 13, R paw) was 1.26 mL and 1.25 mL and 1.21 mL, the “Average animal paw volume” value ([1]; Day 14, R paw) was 1.26 mL and the Animal paw volume ([1]; Day 14, L paw) was 1.24 mL (3×) and 1.25 mL. The Animal paw volume ([1]; Day 14, R paw) was 1.26 mL (4×) and 1.23 mL and 1.20 mL, the “Average animal paw volume” value ([1]; Day 15, L paw) was 1.26 mL and the “Average animal paw volume” value ([1]; Day 15, R paw) was 1.26 mL. The Animal paw volume ([1]; Day 15, L paw) was 1.23 mL and 1.21 mL and 1.26 mL and 1.16 mL, the Animal paw volume ([1]; Day 15, R paw) was 1.25 mL and 1.24 mL and 1.14 mL and 1.26 mL and the Animal paw volume ([1]; Day 18, L paw) was 1.22 mL and 1.18 mL. The Animal paw volume ([1]; Day 18, R paw) was 1.24 mL, the Animal paw volume ([1]; Day 19, L paw) was 1.22 mL and 1.19 mL and the Animal paw volume ([1]; Day 19, R paw) was 1.22 mL and 1.18 mL. The Animal paw volume ([1]; Day 21, L paw) was 1.26 mL and 1.22 mL and 1.18 mL, the Animal paw volume ([1]; Day 21, R paw) was 1.26 mL and 1.22 mL and 1.18 mL and the “Animal body weight percent change (%)” value [2] was −11.73%.

“And” between values parts separate entries of the source, which are not always exact repeats. Equal values may be shown once.
